1 substance from patent US20190359686A1 (INNOVATIVE TECHNOLOGIES IN BIOLOGICAL SYSTEMS SL, published 2019) can be followed below.

Sequences of proteins named here, by UniProt entry; tags and fusion partners are left off.
UniProt P25103, whole entry: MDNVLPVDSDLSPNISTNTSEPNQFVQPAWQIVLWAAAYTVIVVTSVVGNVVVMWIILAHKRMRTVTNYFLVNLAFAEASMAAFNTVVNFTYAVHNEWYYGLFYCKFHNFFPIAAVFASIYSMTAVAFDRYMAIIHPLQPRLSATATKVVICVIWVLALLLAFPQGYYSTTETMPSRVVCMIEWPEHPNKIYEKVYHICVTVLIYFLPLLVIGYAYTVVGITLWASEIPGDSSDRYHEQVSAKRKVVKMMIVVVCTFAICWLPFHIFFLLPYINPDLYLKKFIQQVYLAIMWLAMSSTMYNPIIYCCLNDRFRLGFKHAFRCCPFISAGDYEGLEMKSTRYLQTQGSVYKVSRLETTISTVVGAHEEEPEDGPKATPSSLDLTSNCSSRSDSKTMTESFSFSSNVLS

The target in this test is Tachykinin receptor 1 (NK1) (UniProt P25103). The test can be described thus: cell-based or functional assay.

For “Substance P (from UniProt P20366 58-68) (peptide)”, the Ec50, Red ß-ARRNomad biosensor change of localization (image assay, BD Pathway 855), 24 h amounted to 2.99 nM and the Ec50, increase in fluorescence of Red ß-ARRNomad biosensor (Synergy 2 microplate reader), 24 h worked out at 5.2 nM.
